In patent publication US20250382298A1, “NITROGEN-CONTAINING COMPOUND AND USE THEREOF” (SUZHOU GENHOUSE BIO CO., LTD., priority 2022, published 2025):

Key:
OVCAR3 cells [1] = test: Detection of cell proliferation activity by CCK8 method (OVCAR3); conditions: read-out: OVCAR3 CCK8 method IC50, CCK8, 96 h
[2] = Pharmacokinetic test in mice; conditions: BALB/c mice
HT-29 cells [3] = test: Detection of cell proliferation activity by CCK8 method (HT-29); conditions: read-out: HT-29 CCK8 method IC50, CCK8, 96 h
OVCAR3 cells [4] = test: Detection of OVCAR3 cell proliferation activity by CTG method; conditions: read-out: OVCAR3 CTG method IC50, CellTiter-Glo, 7 days
[5] = Stability test in mouse liver microsomes; conditions: mouse liver microsomes 0.5 mg/mL, 1.0 μM substrate
BT-549 cells = test: Detection of cell proliferation activity by CCK8 method (BT-549); conditions: read-out: BT-549 CCK8 method IC50, CCK8, 96 h
HCT-116 cells [6] = test: Detection of cell proliferation activity by CCK8 method (HCT-116); conditions: read-out: HCT-116 CCK8 method IC50, CCK8, 96 h
HT-29 cells [7] = test: Mitotic index analysis, pH3 expression in HT-29 cells; conditions: read-out: HT-29 EC50 (pH3 expression), 24 h treatment
[8] = Stability test in rat liver microsomes; conditions: rat liver microsomes 0.5 mg/mL, 1.0 μM substrate
[9] = Stability test in human liver microsomes; conditions: human liver microsomes 0.5 mg/mL, 1.0 μM substrate
HCT-116 cells [10] = test: Mitotic index analysis, pH3 expression in HCT-116 cells; conditions: read-out: HCT-116 EC50 (pH3 expression), 24 h treatment
[11] = Pharmacokinetic test in rats; conditions: SD rats, PO @5mpk

Question: Which IC50 (OVCAR3 cells [1]) does the source give for `Cn1ncc2cc(NC(=O)c3ccc(NS(=O)(=O)CCO)cc3N3CCC4(CC3)CC4)nc(N3CCC(F)(F)CC3)c21` here?
Answer: 4.4 nM

Question: What about the AUC ([2]; PO @5mpk) of the same molecule?
Answer: 16.331 µM·h

Question: And the Cmax ([2]; PO @5mpk)?
Answer: 1730 nM

Question: What about the F ([2]; PO @5mpk) of the same molecule?
Answer: 135%

Question: What about the t½ ([2]; PO @5mpk) of the same molecule?
Answer: 2.8 h

Question: What about the IC50 (HT-29 cells [3]) of the same molecule?
Answer: 13.5 nM

Question: What about the IC50 (OVCAR3 cells [4]) of the same molecule?
Answer: 6.1 nM

Question: What about the “MLM 0.5 CLint(liver)” value [5] of the same molecule?
Answer: <38.0 mL/min/kg

Question: And the “MLM 0.5 T½” value [5]?
Answer: >2.42 h

Question: And the IC50 (BT-549 cells)?
Answer: 16.2 nM

Question: And the IC50 (HCT-116 cells [6])?
Answer: > 10000 nM

Question: And the EC50 (HT-29 cells [7])?
Answer: 9.6 nM

Question: What about the “RLM 0.5 CLint(liver)” value [8] of the same molecule?
Answer: <17.3 mL/min/kg

Question: What about the “RLM 0.5 T½” value [8] of the same molecule?
Answer: >2.42 h

Question: And the “HLM 0.5 CLint(liver)” value [9]?
Answer: <8.6 mL/min/kg

Question: What about the “HLM 0.5 T½” value [9] of the same molecule?
Answer: >2.42 h

Question: And the EC50 (HCT-116 cells [10])?
Answer: > 10000 nM

Question: Which IC50 (OVCAR3 cells [1]) does the source give for `O=C(Nc1cc2cccnc2c(N2CCC(F)(F)CC2)n1)c1ccc(NS(=O)(=O)CCO)cc1N1CC2CCC(C2)C1` here?
Answer: 19.3 nM

Question: What about the AUC ([2]; PO @30mpk) of the same molecule?
Answer: 537.225 µM·h

Question: And the Cmax ([2]; PO @30mpk)?
Answer: 28400 nM

Question: What about the F ([2]; PO @30mpk) of the same molecule?
Answer: 136%

Question: And the t½ ([2]; PO @30mpk)?
Answer: 19.5 h

Question: And the IC50 (HT-29 cells [3])?
Answer: 38 nM

Question: What about the IC50 (OVCAR3 cells [4]) of the same molecule?
Answer: 29.3 nM

Question: And the IC50 (BT-549 cells)?
Answer: 73.6 nM

Question: What about the IC50 (HCT-116 cells [6]) of the same molecule?
Answer: > 10000 nM

Question: What about the EC50 (HT-29 cells [7]) of the same molecule?
Answer: 12.3 nM

Question: What about the EC50 (HCT-116 cells [10]) of the same molecule?
Answer: > 10000 nM

Question: What about the AUC [11] of the same molecule?
Answer: 5.787 µM·h

Question: And the Cmax [11]?
Answer: 390 nM

Question: What about the F [11] of the same molecule?
Answer: 54%

Question: And the t½ [11]?
Answer: 8.1 h
